Results taken from published antibiotic growth screens (doi:10.1038/s41589-023-01349-8).
The other results are listed elsewhere or left out.

system: A. baumannii ATCC 17978; test: relative growth (fraction of control); higher = less inhibition; conditions: 50 µM

SMILES | relative growth
Cn1cnc(S(=O)(=O)N2C[C@@H](O)COC[C@H]3O[C@@H](CC(=O)N4CCN(c5ccccc5)CC4)CC[C@@H]32)c1 | 1.19
O=C(N/N=C/[C@@H](O)[C@@H](O)[C@H](O)[C@H](O)CO)c1ccccn1 | 0.851
CCc1ccc(-c2cc3c(=O)n(CC(=O)NCCN4CCOCC4)nc(C)n3n2)cc1 | 0.852
N#Cc1cccnc1Oc1ccccc1 | 1.01
CC1(C)S[C@@H]2[C@H](NC(=O)C(C(=O)[O-])c3ccccc3)C(=O)N2[C@H]1C(=O)[O-].[Na+].[Na+] (some centres not stated) | 0.992
C[C@H]1ON(c2ccc(C(=O)OC(C)(C)C)cc2)[C@@H](c2ccc(O)cc2)[C@@H]1C(=O)N1C(=O)OC[C@@H]1c1ccccc1 | 1.18
COCCNC(=O)C[C@H]1CC[C@@H]2[C@H](COC[C@H](O)CN2C(=O)Nc2ccccc2OC)O1 | 1.03
C[C@@H]1CN([C@@H](C)CO)C(=O)CCCn2cc(nn2)CO[C@H]1CN(C)C(=O)Nc1ccc(N2CCN(C)CC2)cc1 | 1.05
CN1C(=O)/C(=C\NCc2ccccc2)C(=O)c2c1n(C)c(=O)n(C)c2=O | 1
Cc1ccc(C(=O)CCNc2ccc3c(c2)oc2ccccc23)o1 | 0.9
N=C(N=C(N)N)Nc1cc(-c2cccs2)n[nH]1 | 0.953
COc1cccc(S(=O)(=O)Nc2ccc3c(c2)[C@@H]2C[C@H](CC(=O)NC4CCCCC4)O[C@@H](CO)[C@@H]2O3)c1 | 0.876
NS(=O)(=O)Cc1noc2ccccc12 | 0.834
COCC#Cc1ccc2c(c1)O[C@H](CN(C)S(=O)(=O)c1ccc(F)cc1)[C@H](C)CN([C@H](C)CO)S2(=O)=O | 0.951
COc1ccc2c(c1)C(=O)N(CCc1ccc(S(=O)(=O)NC(=O)NC3CCCCC3)cc1)C(=O)C2(C)C | 1.11
Cc1ccc(S(=O)(=O)N2C[C@H](O)COC[C@@H]3O[C@@H](CC(=O)N[C@H]4CCN(Cc5ccccc5)C4)CC[C@H]32)cc1 | 0.96
O=C(N[C@H]1CC[C@H](CC(=O)N2CCOCC2)O[C@@H]1CO)c1ccc2c(c1)OCO2 | 1.03
N#Cc1ccc(-c2ccccc2F)o1 | 0.895
CCCCCCCCCCOc1cc2c(O)c(C(=O)OCC)cnc2cc1OCC | 1.49
COCC(=O)N(C)C[C@@H]1Oc2cc(C#C[C@H](C)O)ccc2S(=O)(=O)N([C@@H](C)CO)C[C@H]1C | 1
CN(C)CCCNC(=O)C[C@@H]1CC[C@H](NS(=O)(=O)c2ccccc2)[C@H](CO)O1 | 0.978
Cc1cn([C@H]2C[C@H](N=[N+]=[N-])[C@@H](CO)O2)c(=O)[nH]c1=O | 1.11

SMILES | relative growth
COCCNC(=O)C[C@@H]1CC[C@@H](NS(=O)(=O)c2ccc(C)cc2)[C@@H](CO)O1 | 1.02
OCCNC(=S)NC1CCCC1 | 0.981
O=C(C[C@H]1CC[C@H]2[C@@H](COC[C@@H](O)CN2S(=O)(=O)c2ccccc2)O1)NCc1ccc2c(c1)OCO2 | 1.03
COc1ccc([C@H]([C@H](Cc2ccccc2)OC(C)=O)N(C[C@H](/C=C/c2ccccc2)CC(=O)N(C)C)[C@@H](Cc2ccccc2)C(OC)OC)cc1 | 1.13
C[C@H]1[C@H]([Si](C)(C)F)[C@@H](CC(=O)N2Cc3ccccc3C[C@H]2CO)O[C@]12C(=O)N(c1ccccc1)c1ccccc12 | 0.913
O=C(OCc1ccccc1)c1cccnc1 | 1.32
O=C(Nn1cnnc1)c1ccccc1 | 1.03
C[C@]12C=CC(=O)C=C1CCC1C2C(=O)C[C@@]2(C)C1CC[C@]2(O)C(=O)CO (some centres not stated) | 1.03
Oc1ccccc1CNc1ccc(C2CCCCC2)cc1 | 1.08
C[C@@H]1CCC2[C@](C)(CO)[C@@H](O)CC[C@]2(C)[C@@]12CC[C@@](CO)(CCO)O2 (some centres not stated) | 1.08
O=C(O)/C=C/C=C/c1ccccc1 | 0.951
O=C(C[C@@H]1CC[C@H]2[C@@H](COC[C@@H](O)CN2S(=O)(=O)c2cccc(Cl)c2)O1)N1CCOCC1 | 0.969
Cc1cccc(S(=O)(=O)N2C[C@H](O)COC[C@@H]3O[C@H](CC(=O)N4CCN(C)CC4)CC[C@H]32)c1 | 1
C=CCOC(=O)[C@H]1[C@@H]2C(=O)O[C@@H](c3ccccc3)[C@@H](c3ccccc3)N2[C@@H](c2ccc(OCCOC(=O)NCCCCCC(=O)NO)cc2)[C@@]12C(=O)Nc1ccccc12 | 0.945
CCCCC1C(=O)N(c2ccccc2)N(c2ccccc2)C1=O | 1.02
Brc1ccc(CSc2c[nH]c3ccccc23)cc1 | 0.854
NCCCc1ccc2c(c1)OCO2 | 0.958
COc1cccc(C#Cc2ccc3c(c2)O[C@H](CN(C)S(=O)(=O)c2ccccc2F)[C@H](C)CN([C@H](C)CO)S3(=O)=O)c1 | 0.979
N[C@@H](CC(=O)Nc1ccc(Cl)cc1)C(=O)O | 1.12
CCCc1nc2c(C)cc(-c3nc4ccccc4n3C)cc2n1Cc1ccc(-c2ccccc2C(=O)O)cc1 | 1.03
COc1ccc(S(=O)(=O)Nc2ccc3c(c2)[C@@H]2C[C@@H](CC(=O)NCC4CC4)O[C@H](CO)[C@@H]2O3)cc1 | 1.27
CO[C@@H](CN(C)S(=O)(=O)c1cn(C)cn1)[C@@H](C)CN(C(=O)Nc1ccc(C(F)(F)F)cc1)[C@@H](C)CO | 0.911

SMILES | relative growth
CC(C)(C)OC(=O)C[C@H]1CC=CC[C@@H](CC(=O)N[C@@H](CO)Cc2ccccc2)C(=O)N[C@@H](C(C)(C)C)COC1=O | 0.859
CCCCOC(=O)c1ccc(O)cc1 | 1.05
C#C[C@]1(OC(C)=O)CC[C@H]2[C@@H]3CCC4=CC(=O)CC[C@@H]4[C@H]3CC[C@@]21C | 1.01
CC(=O)OCC[N+](C)(C)C.[Cl-] | 1.12
O=C(O)[C@H]1C[C@H](O)CN1Cc1ccccc1 | 1.13
COc1ccc(-c2cc(=O)c3c(O)c(OC)c(OC)c(OC)c3o2)cc1OC | 1.1
C[C@@H]1CCCCO[C@H](CN(C)Cc2ccc3c(c2)OCO3)[C@@H](C)CN([C@H](C)CO)C(=O)c2cc(NS(=O)(=O)c3cccs3)ccc2O1 | 0.862
CC1=CC(=O)c2ccccc2C1=O | 0.564
CO[C@@H](CN(C)C(=O)C1CCOCC1)[C@@H](C)CN(C(=O)Nc1ccc(C(F)(F)F)cc1)[C@H](C)CO | 0.922
COc1cccc(S(=O)(=O)N(C)C[C@H]2Oc3ncc(-c4cccc(C(=O)N(C)C)c4)cc3C(=O)N([C@@H](C)CO)C[C@H]2C)c1 | 1.09
Cc1ccccc1N1CCN(S(=O)(=O)C[C@@]23CC[C@@H](C[C@@H]2NC(=O)[C@@H](N)CCS(C)(=O)=O)C3(C)C)CC1 | 0.917
Cn1cnc(CCNC(=O)C[C@@H]2CC[C@@H]3[C@H](COC[C@@H](O)CN3C(=O)Nc3ccc(C(F)(F)F)cc3)O2)c1 | 1.06
NNC(=O)C1CCCC1 | 0.978
NNC(=O)c1ccc(C(=O)NO)cc1 | 0.979
COC(=O)C1=CC(CCCO)=C[C@@H](c2cccs2)N(Cc2cccc(OC(F)(F)F)c2)C=C1C(=O)OC | 1.03
COC(=O)c1ccc(O)c(/C=N/N(CCO)C2=NS(=O)(=O)c3ccccc32)c1 | 1.03
O=C(CN1CCOCC1)N[C@H]1CC[C@@H](CCNC(=O)C2CCC2)O[C@@H]1CO | 1.21
CC(Cc1ccc(O)c(O)c1)C(C)Cc1ccc(O)c(O)c1 (configuration not stated) | 0.972
CCOC(=O)CN1C(=O)c2ccccc2C1=O | 1.06
O=C(O)Cc1cc(I)c(Oc2ccc(O)c(I)c2)c(I)c1 | 1.05
CC(CCC(=O)O)[C@H]1CCC2C3CC[C@@H]4CCCC[C@]4(C)C3CC[C@@]21C (some centres not stated) | 1.14
CCNC(=O)C[C@H]1CC[C@@H]2[C@H](COC[C@H](O)CN2S(=O)(=O)c2ccc(Oc3ccccc3)cc2)O1 | 0.933

SMILES | relative growth
O=C(CN1CCOCC1)NCC[C@@H]1CC[C@@H](NC(=O)Nc2ccccc2)[C@@H](CO)O1 | 0.969
COC(=O)CCCCCNc1n[nH]c(=O)[nH]c1=O | 0.959
Fc1ccc(-c2n[nH]c(=S)o2)cc1 | 1.12
COc1ccccc1-c1ccc2c(c1)O[C@H](CN(C)S(=O)(=O)c1ccccc1)[C@H](C)CN([C@H](C)CO)S2(=O)=O | 1.17
COc1c(C)cnc2c1c(=O)n(CC#N)c(=O)n2C | 0.896
COCC#Cc1ccc2c(c1)O[C@H](CN(C)C(=O)C1CCCCC1)[C@H](C)CN([C@H](C)CO)S2(=O)=O | 1.09
COc1cc(C(C)=O)cc(OC)c1O | 1.02
CC(O)C(=O)[O-].[NH4+] (configuration not stated) | 0.802
C[C@@H]1CN([C@H](C)CO)C(=O)CCCn2nncc2CO[C@H]1CN(C)C(=O)Nc1ccc(N2CCCCC2)cc1 | 0.914
C[C@H]1COC(=O)[C@@H](Cc2ccc(F)cc2)CC=CC[C@@H](CC(=O)N(CCO)Cc2ccccc2)C(=O)N1 | 0.772
CO[C@@]1(NC(=O)Cc2cccs2)C(=O)N2C(C(=O)[O-])=C(COC(N)=O)CS[C@@H]21.[Na+] | 0.869
O=C([O-])C(O)[C@H](O)[C@H](O)[C@H](O)[C@H](O)CO.O=C([O-])C(O)[C@H](O)[C@H](O)[C@H](O)[C@H](O)CO.[Ca+2] (some centres not stated) | 1.25
C[C@H](CO)N1C[C@H](C)[C@@H](CN(C)C(=O)NC2CCCC2)Oc2cc(-c3cncnc3)ccc2S1(=O)=O | 1
O=C(CCCCC(=O)Nc1c(I)cc(I)c(C(=O)O)c1I)Nc1c(I)cc(I)c(C(=O)O)c1I | 1.23
COc1nonc1NC(C)=O | 0.968
Cn1ncc2c(N3CCCC3)ncnc21 | 0.965
COc1cccc(NC(=O)N2C[C@@H](O)COC[C@H]3O[C@H](CC(=O)NCc4ccccc4F)CC[C@@H]32)c1 | 0.968
CC(=O)N(C)c1nc(N)n(-c2ccccc2)n1 | 0.901
CCN1OCN(c2nc(N(C)C)nc(N(C)C)n2)C1=N | 0.955
Cl.Nc1ncnc(Nc2ccc(Cl)cc2)n1 | 1.14
CC(C)NC(=O)N(C)C[C@@H]1Oc2cc(C#Cc3ccc(F)cc3)ccc2S(=O)(=O)N([C@H](C)CO)C[C@H]1C | 0.867
